By UniProt entry, the sequences of proteins in these tests, tags left out. Where a name states a change or a piece, a line headed by the entry shows the natural chain unless it says otherwise.
UniProt Q9UGN5: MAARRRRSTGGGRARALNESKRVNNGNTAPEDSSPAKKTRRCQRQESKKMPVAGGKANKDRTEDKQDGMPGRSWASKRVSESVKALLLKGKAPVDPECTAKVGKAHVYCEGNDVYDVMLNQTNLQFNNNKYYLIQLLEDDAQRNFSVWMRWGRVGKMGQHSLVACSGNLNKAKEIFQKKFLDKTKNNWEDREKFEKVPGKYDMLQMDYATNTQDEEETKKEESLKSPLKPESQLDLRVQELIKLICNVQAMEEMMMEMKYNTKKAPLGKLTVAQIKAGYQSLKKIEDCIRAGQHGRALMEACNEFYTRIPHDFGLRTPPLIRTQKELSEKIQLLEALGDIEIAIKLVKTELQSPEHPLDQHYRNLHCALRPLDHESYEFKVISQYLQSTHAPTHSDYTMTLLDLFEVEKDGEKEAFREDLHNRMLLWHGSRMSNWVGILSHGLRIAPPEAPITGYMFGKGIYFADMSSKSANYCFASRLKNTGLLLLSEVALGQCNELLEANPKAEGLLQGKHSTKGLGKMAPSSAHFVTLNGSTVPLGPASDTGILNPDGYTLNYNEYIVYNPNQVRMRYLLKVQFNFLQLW

According to patent US20250082630A1, “METHODS OF TREATING BRAIN TUMOURS AND NEUROBLASTOMAS” (AstraZeneca AB, priority 2021, published 2025):

Target: PARP2 (Homo sapiens (Human), UniProt Q9UGN5)
Settings: data not shown

Q: With `CNC(=O)c1ccc(N2CCN(Cc3ccc4nc(C)c(=O)[nH]c4c3F)CC2)c(F)n1` [Example 20, 6-fluoro-5-[4-[(5-fluoro-2-methyl-3-oxo-4H-quinoxalin-6-yl)methyl]piperazin-1-yl]-N-methyl-pyridine-2-carboxamide] as the compound, how does the PARP2 trapping read?
A: sparing PARP2
